Patent US7816400B2 (The University of Hong Kong, priority 2007, dated 2010)
“Also recorded” adds a separate entry of the source.

Test system: anesthetized dogs
Assay: In vivo electrophysiology (atrial ERP, QTc) in anesthetized dogs
Design: species or system dog
Conditions: for atrial ERP, in words: BCL 300, 250, 200 ms, 4-hour observation; for rate dependence of ERP prolongation, in words: three hours post administration
[1] = 5 mg/kg intraduodenal, BCL 200 ms, 1 h post-treatment
[2] = 5 mg/kg intraduodenal, BCL 300 ms, pre-treatment (baseline)

Q: `CC(C)NCC(O)c1ccc(NS(C)(=O)=O)cc1` (centres unmarked) [Sotalol, sotalol] was tested. Which “QTc interval in anesthetized dogs, in words” value (shortened to “QTc interval”) (5 mg/kg intraduodenal) did it give?
A: increased; also recorded: prolonged

Q: And the “left atrial ERP (ms), BCL 200 ms” value [1]?
A: 99.4 ± 3.2 ms

Q: What about the “right atrial ERP (ms), BCL 200 ms” value [1] of the same compound?
A: 99.4 ± 3.2 ms

Q: And the “right atrial ERP (ms), BCL 200 ms” value (5 mg/kg intraduodenal, BCL 200 ms, 2 h post-treatment)?
A: 105.1 ± 5.1 ms

Q: What about the “atrial ERP, in words” value (5 mg/kg intraduodenal) of the same compound?
A: significantly prolonged

Q: And the “left atrial ERP (ms), BCL 300” value [2]?
A: 99.4 ± 3.7 ms

Q: And the “right atrial ERP (ms), BCL 300” value [2]?
A: 100.3 ± 9.4 ms

Q: And the “rate dependence of ERP prolongation, in words” value (5 mg/kg intraduodenal)?
A: reverse rate-dependent prolongation; also recorded: ‘reverse-rate dependent’ prolongation

Q: What about the “QTc interval” value (5 mg/kg intraduodenal, listed as sotalol) of the same compound?
A: prolonged

Q: `COc1ccc(-c2cc(=O)c3c(O)cc(O)cc3o2)cc1` [Acacetin, 5,7-dihydroxy-4′-methoxyflavone] was tested. Which “QTc interval” value (5 mg/kg intraduodenal) did it give?
A: without prolonging

Q: What about the “atrial ERP, in words” value (5 mg/kg intraduodenal) of the same compound?
A: significantly prolonged

Q: What about the “rate dependence of ERP prolongation, in words” value (5 mg/kg intraduodenal) of the same compound?
A: no such reverse rate-dependent effect

Q: What about the “QTc interval” value (5 mg/kg intraduodenal, listed as acacetin) of the same compound?
A: did not prolong

Q: And the “S2-induced sustained AF during right atrial ERP measurement at 200 ms BCL, in words” value (one animal, 2 h after 5 mg/kg)?
A: but not after two hours of acacetin administration; also recorded: no longer triggered
